# AlphaSeq binding of Ab-91 heavy chain variants to a spike HR2 peptide

Values reported by Engelhart et al. 2022, doi:10.1038/s41597-022-01779-4 (FLAb copy).

Antigen: PDVDLGDISGINAS, a 14-residue peptide of the SARS-CoV-2 spike HR2 region.

Parent scFv Ab-91: VL joined to VH by the linker GGGGSGGGGSGGGGS. Changes lie in the heavy chain CDRs alone.
VL: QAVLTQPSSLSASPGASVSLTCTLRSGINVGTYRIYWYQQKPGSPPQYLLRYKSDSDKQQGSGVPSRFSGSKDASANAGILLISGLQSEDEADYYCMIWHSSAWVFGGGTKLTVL
VH: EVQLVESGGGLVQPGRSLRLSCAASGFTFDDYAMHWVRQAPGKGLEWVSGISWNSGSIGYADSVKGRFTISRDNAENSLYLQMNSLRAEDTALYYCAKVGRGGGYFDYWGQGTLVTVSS

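Variants in AAYL51 differ from the parent at up to three CDR positions; double and triple changes were sampled at random. In AlphaSeq, yeast of one mating type display the scFv and yeast of the other type display the target. After mating in shaken culture at 30 °C for 16 h, diploids were selected and their barcode pairs sequenced. Each replicate has its own calibration line, from reference interactions of the BCL2 family. The assay was run in three technical replicates.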

Positions count from residue 1 of the parent VH; F29P puts P in place of F.
The read-out is the apparent dissociation constant on a log10 scale (nM): the lower, the stronger.
A pair that was not seen in that replicate is written "ND"; this usually means weak binding, but a binder can also be missed.
Empty control strains, which show no peptide, gave a signal in 21% of pairings with library AAYL51; the median was 4.54 and 95% of these signals were weaker than 3.26. No background was subtracted. The control count says in how many pairings with the empty strains this scFv gave a signal, with their mean in brackets.
For reference, the parent read 1.86 as the reference entry and 0.88 as a member of this library.

{"changes": "F29P+G50K+G100L", "log10 Kd (nM) by replicate": "ND ND ND", "signal with controls": "1/9 (3.35)"}
{"changes": "I58L+D62P+G104E", "log10 Kd (nM) by replicate": "ND 4.03 3.32", "signal with controls": "0/9"}
{"changes": "S52W+G56R+G59S", "log10 Kd (nM) by replicate": "ND 4.90 ND", "signal with controls": "0/9"}
{"changes": "A61R+D62Y+Y105D", "log10 Kd (nM) by replicate": "ND ND ND", "signal with controls": "1/9 (4.43)"}
{"changes": "Y60L+D62G+G100D", "log10 Kd (nM) by replicate": "4.14 4.03 ND", "signal with controls": "3/9 (4.25)"}
{"changes": "G56N+A61L+K65Y", "log10 Kd (nM) by replicate": "3.40 2.40 ND", "signal with controls": "3/9 (4.17)"}
{"changes": "F29Q+A33N+M34R", "log10 Kd (nM) by replicate": "ND ND ND", "signal with controls": "0/9"}
{"changes": "F29K+G59W+Y60A", "log10 Kd (nM) by replicate": "4.64 5.29 4.83", "signal with controls": "9/9 (5.08)"}
{"changes": "D30A+S57D+I58H", "log10 Kd (nM) by replicate": "5.55 ND ND", "signal with controls": "1/9 (3.89)"}
{"changes": "D62A+G104P", "log10 Kd (nM) by replicate": "ND ND ND", "signal with controls": "2/9 (4.28)"}
{"changes": "S57I", "log10 Kd (nM) by replicate": "4.03 3.32 ND", "signal with controls": "0/9"}
{"changes": "T28V+S52M+G103W", "log10 Kd (nM) by replicate": "4.56 ND 5.16", "signal with controls": "3/9 (4.18)"}
{"changes": "H35N+G50L+D62A", "log10 Kd (nM) by replicate": "3.45 ND ND", "signal with controls": "0/9"}
{"changes": "T28E+Y60V+A61V", "log10 Kd (nM) by replicate": "4.64 ND 4.98", "signal with controls": "6/9 (5.73)"}
{"changes": "F29W+S52P+V99W", "log10 Kd (nM) by replicate": "ND ND 4.85", "signal with controls": "1/9 (3.41)"}
{"changes": "D31P+I58L+G104L", "log10 Kd (nM) by replicate": "ND ND ND", "signal with controls": "0/9"}
{"changes": "D30A+G50R+I58Y", "log10 Kd (nM) by replicate": "ND ND ND", "signal with controls": "3/9 (5.11)"}
{"changes": "H35Q+G103H+Y105V", "log10 Kd (nM) by replicate": "5.60 ND ND", "signal with controls": "4/9 (4.37)"}
{"changes": "Y32A+S55I+G59K", "log10 Kd (nM) by replicate": "ND ND ND", "signal with controls": "0/9"}